## Measured affinities in a library of Ab-14 light chain variants

Antigen: PDVDLGDISGINAS, a 14-residue peptide of the SARS-CoV-2 spike HR2 region.

Parent scFv Ab-14: VH joined to VL by a (GGGGS)3 linker. Changes lie in the light chain CDRs alone.
VH: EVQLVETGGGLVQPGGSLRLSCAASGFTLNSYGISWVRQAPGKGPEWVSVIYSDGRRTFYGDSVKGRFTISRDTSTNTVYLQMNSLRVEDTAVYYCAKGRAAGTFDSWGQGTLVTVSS
VL: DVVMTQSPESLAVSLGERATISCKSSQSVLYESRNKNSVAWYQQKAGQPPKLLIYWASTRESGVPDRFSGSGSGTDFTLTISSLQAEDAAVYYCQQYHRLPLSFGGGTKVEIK

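The starting antibody came from a phage panning campaign against this peptide. This is the validation round: designs drawn from the data on random variants, tested in the same kind of assay. Their group label is 14L_En_HC (En: ensemble of fine-tuned language models; HC: hill climbing; a sequence that several methods proposed may carry one label only). The assay is AlphaSeq: two haploid yeast populations carry antibody and antigen on their surface. The frequency of each diploid, read from paired DNA barcodes, reflects how well the two displayed proteins bind. Scores were corrected for input abundance and mapped to Kd with protein pairs of known affinity run in the same pool. There are six technical replicates.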

Each variant is given by its three light chain CDRs, as the data file delimits them; those of the parent are KSSQSVLYESRNKNSVA, WASTRES, QQYHRLPLS. Numbers give log10(Kd / nM), so 0 is 1 nM and 3 is 1 µM. Smaller is tighter. Averages over replicates are reported, and they cover detected replicates only. "ND" means that the variant was in the library but no mating with the target was seen in that replicate; the authors take this as a sign of poor binding, and no number exists. A sequence measured in both rounds can read differently, since the two assays cover different ranges. Three control strains display no target. For all light chain designs, 4% of the pairings with them gave a signal, with a median of 2.64 and one signal in twenty below 1.59, so weak values seen in few replicates may be background. Also given: how often the same scFv was detected with the empty control strains, with their mean in brackets. The authors averaged sequences with at least three values out of six and counted those with two or fewer as poor binders.

CDR-L1 | CDR-L2 | CDR-L3 | log10 Kd (nM) by replicate | mean log10 Kd (nM) | empty controls
KLSYSHQVESINKSNVA | EMVTRES | QQYDRLPLS | 2.20 / 2.18 / 2.87 / 2.31 / 2.27 / 2.46 | 2.38 | 1 of 18 (2.13)
ILSQMLMTAGNKHNSVA | QANYRES | QQYHRLPLS | 1.83 / 1.56 / 1.37 / 1.73 / 1.55 / 1.53 | 1.59 | 1 of 18 (1.86)
MISQSFLIGMRAKNSVA | QTSTRES | QQYDRLPLS | 1.28 / 0.62 / 1.18 / 1.12 / 1.13 / 1.25 | 1.10 | 1 of 18 (2.37)
TISQVHGMQSHNKNSVA | DMNTRGS | QQYDRLPLS | 0.29 / 0.24 / 0.29 / 0.08 / 0.34 / 0.26 | 0.25 | 0 of 18
KIGQQVTYESTNKNAIA | QMTTREK | QQYHRLPLS | 0.14 / 0.22 / -0.09 / 0.41 / 0.06 / 0.37 | 0.19 | 0 of 18
MISDLMLQGSRAKNPIA | NASTREY | QQYHRLPLE | 2.43 / 1.51 / 0.67 / 1.84 / 2.02 / 1.50 | 1.66 | 0 of 18
HISESMYYQSRIKNNIA | EMSTRER | QHYHRLPLS | 1.03 / 1.62 / 0.72 / 1.28 / 0.89 / 1.25 | 1.13 | 0 of 18
KLSQVTNSEHKVKNSIA | EMVTREK | QQYDRLPLE | 1.16 / 1.14 / 1.20 / 0.76 / 0.86 / 0.76 | 0.98 | 1 of 18 (2.79)
KLSMSYRYESQEKNSIA | EMSTREE | QSYHRLPLA | 0.72 / 0.05 / 0.51 / 0.34 / 0.28 / -0.10 | 0.30 | 2 of 18 (1.99)
KLGQSVAMTSRAKNNVA | DLNERER | QQYHRLPLS | 0.28 / -0.19 / -0.29 / 0.55 / 0.21 / 0.37 | 0.16 | 0 of 18
MISTLTMYGSRNVNSVA | DLSTRGS | QQYHRLPLS | 0.70 / 0.87 / 0.72 / 0.54 / 0.98 / 0.88 | 0.78 | 0 of 18
TIGQSTLMESANRNNVA | QMSTREK | QQYDRLPLS | -0.06 / 0.12 / -0.03 / -0.26 / 0.01 / 0.10 | -0.02 | 3 of 18 (3.23)
KFGQGVHLESIMKNSIA | QTSTREE | QQYDRLPLS | 1.09 / 1.45 / 0.53 / 1.03 / 1.02 / 1.07 | 1.03 | 1 of 18 (2.29)
KLSISYLFESQEKNSIA | ENSTREQ | QHYHRLPLS | ND / ND / ND / ND / ND / ND | ND | 0 of 18
ILYESVGTLSRNRNSVA | DNSTREK | QQYDRLPLS | 0.51 / 0.16 / 0.08 / -0.09 / -0.72 / 0.21 | 0.02 | 1 of 18 (1.60)
MISDLTGYGSRNKNSVA | DLSTRGS | QQYNRLPLS | -0.34 / -0.40 / -0.37 / -0.43 / -0.51 / -0.31 | -0.39 | 2 of 18 (3.33)
KIGHGLTTESRNKNSVA | QTETRVP | QHYHRLPLS | 3.37 / 1.02 / 1.17 / 3.15 / 1.50 / 2.27 | 2.08 | 0 of 18
TISQMWVIESKNKNNVA | EMTTREN | QDYDRLPLS | -0.21 / 0.01 / 0.14 / -0.47 / 0.94 / 0.38 | 0.13 | 0 of 18
HVSEMVFAQSKMRNSVA | ENSTRES | QQYDRLPLS | 1.78 / 1.84 / 1.91 / 2.23 / 2.09 / 2.08 | 1.99 | 2 of 18 (2.65)
KISQLVNFLGKNKNSVA | QMSTREA | QQYDRLPLS | 0.86 / 0.75 / 0.58 / 0.42 / 0.31 / 1.13 | 0.67 | 1 of 18 (2.67)
KLSALFYKESKNKNNVA | EMTTRGS | QQYDRLPLS | -0.16 / 0.06 / -0.09 / -0.27 / 0.21 / -0.08 | -0.05 | 0 of 18
TISHSTDLESVHKNSIA | DLMTRES | QQYHRLPLS | 0.49 / 0.40 / 0.27 / 0.22 / 0.39 / 0.39 | 0.36 | 0 of 18
TISQSTYWESRNKNNVA | QTSTREE | QDYDRLPLS | 1.26 / 0.95 / 0.43 / 0.76 / 0.88 / 0.77 | 0.84 | 2 of 18 (2.77)
KLIQSVAMVSRNKDSIA | DNSTRES | QQYHRLPLS | 1.48 / 1.27 / 1.02 / 1.08 / ND / 1.05 | 1.18 | 0 of 18
MISDTGLHDSRMKNSVA | NNSTRES | QQYHRLPLS | 1.37 / 1.16 / 1.40 / 1.23 / 1.56 / 1.65 | 1.39 | 3 of 18 (3.11)
TISQSVLMTGLNRNNVA | QAEERLE | QQYHRLPLS | 0.24 / 0.63 / 0.24 / 0.34 / 0.38 / 0.30 | 0.36 | 1 of 18 (1.68)
KVSDMMAFLQRNRNSVA | DNSTRGS | QQYHRLPLS | 1.78 / 0.78 / 1.40 / 1.41 / 0.92 / 1.35 | 1.27 | 0 of 18
KLYVSTMLESLNKNSIA | DLSTRGN | QQYHRLPLS | ND / ND / ND / ND / ND / ND | ND | 0 of 18
TMSQVHGMLSHNKNSVA | DMNTRGS | QQYDRLPLS | 0.23 / -0.17 / -0.11 / -0.07 / 0.38 / 0.13 | 0.06 | 1 of 18 (2.88)
KIYQSVGTMSHNKQSIA | DMERRED | QQYHRLPLS | 0.45 / 0.26 / 0.06 / 0.07 / 0.17 / 0.48 | 0.25 | 1 of 18 (3.31)
SLAESAHLESRNKNSVA | DNTTREY | QHYDRLPLS | 4.13 / ND / 2.57 / ND / ND / 3.07 | 3.26 | 3 of 18 (2.68)
ALSQSSDMTSRNKNSVA | DLSTREN | QQYHRLPLS | -0.44 / -0.39 / -0.52 / -0.60 / -0.74 / -0.46 | -0.53 | 0 of 18
KVSQSVMMLTRNKNSVA | DNSTSGS | QQYHRLPLS | 2.80 / 1.41 / 1.83 / 2.34 / 2.02 / 1.91 | 2.05 | 1 of 18 (2.46)

The closing 4 entries, repeated:

{"CDR-L1": "KIYQSVGTMSHNKQSIA", "CDR-L2": "DMERRED", "CDR-L3": "QQYHRLPLS", "log10 Kd (nM) by replicate": "0.45 / 0.26 / 0.06 / 0.07 / 0.17 / 0.48", "mean log10 Kd (nM)": "0.25", "empty controls": "1 of 18 (3.31)"}
{"CDR-L1": "SLAESAHLESRNKNSVA", "CDR-L2": "DNTTREY", "CDR-L3": "QHYDRLPLS", "log10 Kd (nM) by replicate": "4.13 / ND / 2.57 / ND / ND / 3.07", "mean log10 Kd (nM)": "3.26", "empty controls": "3 of 18 (2.68)"}
{"CDR-L1": "ALSQSSDMTSRNKNSVA", "CDR-L2": "DLSTREN", "CDR-L3": "QQYHRLPLS", "log10 Kd (nM) by replicate": "-0.44 / -0.39 / -0.52 / -0.60 / -0.74 / -0.46", "mean log10 Kd (nM)": "-0.53", "empty controls": "0 of 18"}
{"CDR-L1": "KVSQSVMMLTRNKNSVA", "CDR-L2": "DNSTSGS", "CDR-L3": "QQYHRLPLS", "log10 Kd (nM) by replicate": "2.80 / 1.41 / 1.83 / 2.34 / 2.02 / 1.91", "mean log10 Kd (nM)": "2.05", "empty controls": "1 of 18 (2.46)"}

From the AlphaSeq antibody data of Li et al. 2023 (doi:10.1038/s41467-023-39022-2), copy in the FLAb collection.